The record followed here is patent US5663180A (dated 1997).

This experiment relates to RAT PAW EDEMA. Put plainly: Rat Carrageenan Foot Pad Edema Test. To be noted: po, 3 h, read-out: RAT PAW EDEMA % Inhibition.

Molecules are shown by their SMILES.

For `CSc1ccc(C2=C(c3ccc(S(C)(=O)=O)cc3)CCC2)cc1`, the inhibition in vivo at 10 mg/kg stood at 28%.
